According to PubChem BioAssay AID652136 (The Scripps Research Institute Molecular Screening Center, 2013):
The entries are a selection whose mix differs from that of the whole data set. Active and inactive are the calls of the source.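 Rule for the calls: active = inhibition above the mean of all tested compounds plus 3 SD (cut at about 3% in these data); inactive = the rest.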

Assay: StAR reporter signal changes without DAX1, counter-screen for DAX1 inhibitor project, cell-based, luminescence, AF-2 mutant SF-1, transactivation (AID 652136);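 note: 0% = DAX-1 transfected cells with DMSO and 100% = cells without DAX-1 with DMSO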
Conditions: HEK293 StAR-luciferase, SF-1 AF2 mutant, at 6.8 µM, active compounds read high
For `CN(C)c1ccc(C(=O)NCC2(N3CCCCC3)CCCCC2)cc1`, the inhibition was active: 5.09%. With `O=C(NCC1(N2CCCCC2)CCCCC1)c1ccc(=O)[nH]c1` the inhibition was active: 5.79%. For `O=C(NCC1(N2CCCCC2)CCCCC1)c1ccc(Cl)nc1`, the inhibition was active: 3.81%. With `CSc1ccc(C(=O)NCC2(N3CCOCC3)CCCCC2)cc1` the inhibition was inactive: 2.04%.
